The target of one assay is T1, CENP-C^[…] (human).
T1 construct: CENP-C, human, […]; the sample was cross-linked with BS3; also called […] truncation of CENP-C; source: Sf9, co-infected with CENP-LN P3 virus (CENP-LNC^[…] complex), purified (Ni-NTA, SEC)
Kind of assay: cryo-EM structure; CCAN reconstituted from purified sub-complexes with CENP-A nucleosome (147 bp Widom 601), purified on Superose 6 in 20 mM HEPES-Na pH 7.5, 300 mM NaCl, 0.5 mM TCEP, cross-linked with 5 mM BS3; 3.3 Å map; no particles with the nucleosome were seen. Conditions: both partners purified.

Another assay has as its target T2, CENP-OPQUR sub-complex (human, UniProt Q9BU64 1-300; Q6IPU0 1-288; Q7L2Z9 1-268; Q71F23 1-418; Q13352 1-177).
T2 construct: CENP-O, human; CENP-P, human; CENP-Q, human; CENP-U, human; CENP-R, human; source: Sf9, purified (Ni-NTA, Mono S, SEC); copies: + + + +
T2 sequence (looked up) 1: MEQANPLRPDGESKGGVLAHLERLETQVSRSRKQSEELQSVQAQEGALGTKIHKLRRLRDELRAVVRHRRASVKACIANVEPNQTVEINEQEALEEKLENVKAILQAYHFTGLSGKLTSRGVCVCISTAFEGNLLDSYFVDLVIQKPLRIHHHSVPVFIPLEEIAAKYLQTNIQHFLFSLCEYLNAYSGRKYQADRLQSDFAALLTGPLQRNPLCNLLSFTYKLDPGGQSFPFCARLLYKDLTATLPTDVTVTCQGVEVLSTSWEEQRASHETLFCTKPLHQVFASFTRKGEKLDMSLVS
T2 sequence (looked up) 2: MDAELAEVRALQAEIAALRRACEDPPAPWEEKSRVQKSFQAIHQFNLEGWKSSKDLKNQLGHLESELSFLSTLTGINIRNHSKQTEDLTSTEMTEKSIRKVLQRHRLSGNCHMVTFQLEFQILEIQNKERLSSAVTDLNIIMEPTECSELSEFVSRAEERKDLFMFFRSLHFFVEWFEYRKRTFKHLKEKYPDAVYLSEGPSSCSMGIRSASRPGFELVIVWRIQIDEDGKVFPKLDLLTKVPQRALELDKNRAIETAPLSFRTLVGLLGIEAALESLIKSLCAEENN
T2 sequence (looked up) 3: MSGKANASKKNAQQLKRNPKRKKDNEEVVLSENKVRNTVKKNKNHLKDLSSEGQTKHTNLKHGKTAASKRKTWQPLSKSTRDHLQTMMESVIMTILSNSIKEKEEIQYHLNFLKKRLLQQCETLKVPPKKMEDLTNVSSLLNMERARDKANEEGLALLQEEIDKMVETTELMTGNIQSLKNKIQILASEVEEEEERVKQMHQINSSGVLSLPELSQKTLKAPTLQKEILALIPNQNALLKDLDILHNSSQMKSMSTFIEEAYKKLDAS
T2 sequence (looked up) 4: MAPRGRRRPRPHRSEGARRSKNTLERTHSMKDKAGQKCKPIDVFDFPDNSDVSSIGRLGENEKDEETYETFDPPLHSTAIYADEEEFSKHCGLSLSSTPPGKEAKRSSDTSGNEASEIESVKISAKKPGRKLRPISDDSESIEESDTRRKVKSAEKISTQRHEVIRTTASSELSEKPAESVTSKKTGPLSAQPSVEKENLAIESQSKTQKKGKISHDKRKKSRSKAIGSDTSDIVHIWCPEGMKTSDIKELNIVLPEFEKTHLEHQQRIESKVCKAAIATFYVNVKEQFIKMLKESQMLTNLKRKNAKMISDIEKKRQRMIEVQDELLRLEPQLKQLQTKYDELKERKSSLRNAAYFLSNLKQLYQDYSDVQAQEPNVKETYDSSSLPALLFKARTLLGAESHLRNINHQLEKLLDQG
T2 sequence (looked up) 5: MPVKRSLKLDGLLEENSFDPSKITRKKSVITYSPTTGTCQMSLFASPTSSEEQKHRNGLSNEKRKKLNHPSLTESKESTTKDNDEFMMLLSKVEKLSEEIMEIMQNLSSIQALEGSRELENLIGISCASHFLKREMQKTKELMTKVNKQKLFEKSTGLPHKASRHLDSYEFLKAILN
The assay is described as above. Conditions: both partners purified.

B1: CENP-M (natural protein, human, UniProt Q9NSP4 1-180, looked up)
chain: MSVLRPLDKLPGLNTATILLVGTEDALLQQLADSMLKEDCASELKVHLAKSLPLPSSVNRPRIDLIVFVVNLHSKYSLQNTEESLRHVDASFFLGKVCFLATGAGRESHCSIHRHTVVKLAHTYQSPLLYCDLEVEGFRATMAQRLVRVLQICAGHVPGVSALNLLSLLRSSEGPSLEDL
notes: CENP-M, human; source: Hi5 insect cells, co-expressed as CENP-HIKM, purified (Ni-NTA, Mono Q, SEC)
Consider B1, for which the binding result with CENP-C^[…] is listed as “binds”.

B2: CENP-L (natural protein, human, UniProt Q8N0S6 1-344, looked up)
chain: MDSYSAPESTPSASSRPEDYFIGATPLQKRLESVRKQSSFILTPPRRKIPQCSQLQEDVDPQKVAFLLHKQWTLYSLTPLYKFSYSNLKEYSRLLNAFIVAEKQKGLAVEVGEDFNIKVIFSTLLGMKGTQRDPEAFLVQIVSKSQLPSENREGKVLWTGWFCCVFGDSLLETVSEDFTCLPLFLANGAESNTAIIGTWFQKTFDCYFSPLAINAFNLSWMAAMWTACKMDHYVATTEFLWSVPCSPQSLDISFAIHPEDAKALWDSVHKTPGEVTQEEVDLFMDCLYSHFHRHFKIHLSATRLVRVSTSVASAHTDGKIKILCHKYLIGVLAYLTELAIFQIE
notes: CENP-L, human; source: Sf9, co-expressed with CENP-N (MultiBac), purified (Ni-NTA, SEC)
As for B2, in the assay with CENP-C^[…], the binding result was “binds”.

B3: CENP-LN sub-complex (complex)
chain 1: B2 chain
chain 2: not shown
notes: CENP-L, human; CENP-N, human, full length; In the cryo-EM sample CENP-LN was co-expressed with GST-CENP-C^[…]; also called CENP-LN heterodimer; wild-type CENP-LN; source: Sf9 (MultiBac), purified (Ni-NTA, SEC)
Take B3: the binding result with CENP-OPQUR sub-complex is on record as “binds”.

B4: CENP-H (natural protein, human, UniProt Q9H3R5 1-247, looked up)
chain: MEEQPQMQDADEPADSGGEGRAGGPPQVAGAQAACSEDRMTLLLRLRAQTKQQLLEYKSMVDASEEKTPEQIMQEKQIEAKIEDLENEIEEVKVAFEIKKLALDRMRLSTALKKNLEKISRQSSVLMDNMKHLLELNKLIMKSQQESWDLEEKLLDIRKKRLQLKQASESKLLEIQTEKNKQKIDLDSMENSERIKIIRQNLQMEIKITTVIQHVFQNLILGSKVNWAEDPALKEIVLQLEKNVDMM
notes: CENP-H, human; source: Hi5 insect cells, co-expressed as CENP-HIKM, purified (Ni-NTA, Mono Q, SEC)
For B4, the binding result with CENP-C^[…] is given as “binds”.

B5: CENP-K (natural protein, human, UniProt Q9BS16 1-269, looked up)
chain: MNQEDLDPDSTTDVGDVTNTEEELIRECEEMWKDMEECQNKLSLIGTETLTDSNAQLSLLIMQVKCLTAELSQWQKKTPETIPLTEDVLITLGKEEFQKLRQDLEMVLSTKESKNEKLKEDLEREQRWLDEQQQIMESLNVLHSELKNKVETFSESRIFNELKTKMLNIKEYKEKLLSTLGEFLEDHFPLPDRSVKKKKKNIQESSVNLITLHEMLEILINRLFDVPHDPYVKISDSFWPPYVELLLRNGIALRHPEDPTRIRLEAFHQ
notes: CENP-K, human; source: Hi5 insect cells, co-expressed as CENP-HIKM, purified (Ni-NTA, Mono Q, SEC)
On to B5, for which, in the assay with CENP-C^[…], the binding result is given as “binds”.

The values above are taken from article PMC9463443 (Cell Discovery, 2022).
